From PubChem BioAssay (NCI)
Only a part is listed here, and it is no random draw.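 48-hour exposure, single concentration, 96-well plates; percent growth endpoint where 0 means no net growth. Active: below 10.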 The source made the active and inactive calls.

Test system: MDA-MB-468 breast
Test: NCI-60 one-dose screen, 48 h (100 = growth as untreated, 0 = no growth, -100 = all killed)
Settings: 10 µM

SMILES: CN(CCCl)CCCl
- growth: active: -23.5%
